## Antibody variant affinities, Ab-95 light chain, assay 2

All variants were tested on one target, the spike HR2 peptide PDVDLGDISGINAS (SARS-CoV-2).

The variants keep the heavy chain, the linker and the frameworks of Ab-95 (scFv order VH, the linker GGGGSGGGGSGGGGS, VL).
VH: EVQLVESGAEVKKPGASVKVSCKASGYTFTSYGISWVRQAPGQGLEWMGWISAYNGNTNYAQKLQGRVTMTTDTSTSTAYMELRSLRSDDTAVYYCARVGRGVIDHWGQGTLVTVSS
VL: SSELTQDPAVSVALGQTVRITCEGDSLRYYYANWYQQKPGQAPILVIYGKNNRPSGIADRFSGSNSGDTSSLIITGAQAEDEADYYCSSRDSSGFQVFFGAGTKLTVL

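The starting antibody came from a phage panning campaign against this peptide. Library AAYL52 holds single substitutions and randomly drawn double and triple substitutions in the CDRs. The scFvs were displayed on barcoded MATa yeast, the peptide on MATalpha yeast. After mating in shaken culture at 30 °C for 16 h, diploids were selected and their barcode pairs sequenced. Each replicate has its own calibration line, from reference interactions of the BCL2 family. There are three technical replicates.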

Each variant is given by its three light chain CDRs, as the data file delimits them; those of the parent are EGDSLRYYYAN, GKNNRPS, SSRDSSGFQVF.
This list gathers variants with a substitution at S92 (VL, numbered from residue 1).
Affinities are written as log10 Kd with Kd in nM; a lower number is a better binder.
Replicates are averaged; those with no signal do not enter the mean.
A pair that was not seen in any replicate is written "no signal"; this usually means weak binding, but a binder can also be missed.
As a blank, each scFv also met three strains without target: over library AAYL52, 28% of these pairings were detected, typically at 3.91 and seldom below 2.90.
In this assay the parent's reference entry averaged 2.31; its copy inside this library read 2.25.

* EGDSLRYYYAN / GKNNRPS / SSRDMYGFQVF = 3.08 (3 of 3 replicates)
* EPDSLRYYYAN / GKNNRPS / SSRDDSGLQVF = no signal (0 of 3 replicates)
* EGDYLRYHYAN / GKNNRPS / SSRDNSGFQVF = 1.73 (3 of 3 replicates)
* EGDSLRYYYFN / GKNNRPS / SSMDHSGFQVF = 3.70 (1 of 3 replicates)
* EGDSLRPYYAN / GKNNRPY / SSRDRSGFQVF = 2.99 (3 of 3 replicates)
* EGKSLRYYYAN / GKNNNPS / SSRDRSGFQVF = 2.89 (2 of 3 replicates)
* PGDSLRYYYAN / GKNNRPS / SSRDKSAFQVF = 3.25 (1 of 3 replicates)
* EGDSLRYYYAV / GKNNRPS / SSRDHSGFMVF = no signal (0 of 3 replicates)
* EGDSLRYYYAN / GKNNEPS / SSRDPEGFQVF = 4.10 (1 of 3 replicates)
* EGDSLRYYYAN / GKNNRPK / SSRDASGFQVH = 2.59 (3 of 3 replicates)
* EGDSLRYRYAN / GKNNRPS / SSRTLSGFQVF = 2.32 (3 of 3 replicates)
* EGDSLRYYYAN / GKNNRPS / SSRDMSGFQVF = 2.38 (3 of 3 replicates)
* EGDSNRYYYAN / GKNNRPS / SSRDERGFQVF = 3.16 (3 of 3 replicates)
* EGDSLRMYTAN / GKNNRPS / SSRDISGFQVF = 2.34 (3 of 3 replicates)
* EGDSLGYYYAN / GKNNGPS / SSRDRSGFQVF = 3.60 (3 of 3 replicates)
* EGDSLRYYYAN / HKNNPPS / SSRDVSGFQVF = 3.57 (1 of 3 replicates)
* EGDSLRYYYAN / FKNNRPS / SSRDVHGFQVF = 3.19 (1 of 3 replicates)
* EGDSLRYYYAN / GKNNRPS / SSTDGSGFQAF = 4.60 (1 of 3 replicates)
* EGDSLRYYYYN / GKNNRPS / SSRDQSGWQVF = 4.05 (1 of 3 replicates)
* EGDNLRYYYAN / GKNNRPS / SSRDMSGFQFF = 4.16 (2 of 3 replicates)
* EGDSLRYYYAN / GKENRPS / SSRDYSGHQVF = 3.89 (3 of 3 replicates)
* EGDSLRYYYAN / GKNNRPS / SSRGGSGFQVF = 3.89 (2 of 3 replicates)
* EGDSLRYPYAN / GKNNRPS / SSRDPSGFQHF = 2.50 (3 of 3 replicates)
* EGDSLRYYYAN / GKNNEPS / SSRDHSFFQVF = 3.83 (1 of 3 replicates)
* EGKSLRYYYAN / GKNNRPM / SSRDWSGFQVF = 2.92 (3 of 3 replicates)
* EGDSLRYYIAN / GKNNRPS / SSRNGSGFQVF = 4.30 (2 of 3 replicates)
* EGDSLRYYYAN / GKNNRPS / SSRHHMGFQVF = 4.46 (3 of 3 replicates)
* EGDSLRYYYAN / GKNNRKS / SSRDESCFQVF = 3.78 (1 of 3 replicates)
* EGDSLRYYYAN / GKNNRPS / SSRSCSYFQVF = 2.45 (3 of 3 replicates)
* EGDSLRYYYAN / GKNNRPS / SSRDTWPFQVF = 2.93 (3 of 3 replicates)
* EGDSHRYYYAN / GKNNRPS / SSRANSGFQVF = no signal (0 of 3 replicates)
* EGDSTRYYYAN / GFNNRPS / SSRDQSGFQVF = 3.63 (3 of 3 replicates)
* EGDSLRYYYAN / GKMNRPS / SSRDEIGFQVF = no signal (0 of 3 replicates)
* EGDSMRYYYAN / GKNNRPS / SSRDDSGFCVF = 3.70 (1 of 3 replicates)
* EGDSLRYYYPN / GKNNRPS / SSRDFSGFQNF = 2.21 (3 of 3 replicates)
* EGDSLRYYYAN / GKNNRPS / SVCDRSGFQVF = 3.42 (3 of 3 replicates)
* EGDSLRYYHQN / GKNNRPS / SSRDWSGFQVF = 4.25 (1 of 3 replicates)
* EGCSLRYYKAN / GKNNRPS / SSRDMSGFQVF = 4.70 (3 of 3 replicates)
* EGDSLRYYYAN / GKNSRPS / SSRDTSSFQVF = 3.69 (3 of 3 replicates)
* EGDSLRYYYAN / GKNNRPS / HSRDASGYQVF = 3.87 (1 of 3 replicates)
* ECDSLRYYYAN / GKNNRPS / SSKDMSGFQVF = 3.61 (2 of 3 replicates)
* EGDPLRYYYAN / GKNWRPS / SSRDCSGFQVF = 3.49 (3 of 3 replicates)

Picked from the list: the 6 lowest averages where every replicate gave a value.

- EGDYLRYHYAN / GKNNRPS / SSRDNSGFQVF -> 1.73 (3 of 3 replicates)
- EGDSLRYYYPN / GKNNRPS / SSRDFSGFQNF -> 2.21 (3 of 3 replicates)
- EGDSLRYRYAN / GKNNRPS / SSRTLSGFQVF -> 2.32 (3 of 3 replicates)
- EGDSLRMYTAN / GKNNRPS / SSRDISGFQVF -> 2.34 (3 of 3 replicates)
- EGDSLRYYYAN / GKNNRPS / SSRDMSGFQVF -> 2.38 (3 of 3 replicates)
- EGDSLRYYYAN / GKNNRPS / SSRSCSYFQVF -> 2.45 (3 of 3 replicates)

From the AlphaSeq antibody data of Engelhart et al. 2022 (doi:10.1038/s41597-022-01779-4), copy in the FLAb collection.